Tests used:
[1] = system: K562 erythroleukemia cells; experiment: Ligand-coated bead-binding assay; assay type: cell-based, human; details: number of beads bound per 100 cells; 1 h at 37°C; mean ± SEM
[2] = target: α5β1 integrin (human (endogenous in K562)) (UniProt P08648); experiment: ligand-coated bead binding to cells

Sequences of proteins named here, by UniProt entry; tags and fusion partners are left off. Residues count along the entry.
UniProt P08648, 42-1049, chain 1 of 2: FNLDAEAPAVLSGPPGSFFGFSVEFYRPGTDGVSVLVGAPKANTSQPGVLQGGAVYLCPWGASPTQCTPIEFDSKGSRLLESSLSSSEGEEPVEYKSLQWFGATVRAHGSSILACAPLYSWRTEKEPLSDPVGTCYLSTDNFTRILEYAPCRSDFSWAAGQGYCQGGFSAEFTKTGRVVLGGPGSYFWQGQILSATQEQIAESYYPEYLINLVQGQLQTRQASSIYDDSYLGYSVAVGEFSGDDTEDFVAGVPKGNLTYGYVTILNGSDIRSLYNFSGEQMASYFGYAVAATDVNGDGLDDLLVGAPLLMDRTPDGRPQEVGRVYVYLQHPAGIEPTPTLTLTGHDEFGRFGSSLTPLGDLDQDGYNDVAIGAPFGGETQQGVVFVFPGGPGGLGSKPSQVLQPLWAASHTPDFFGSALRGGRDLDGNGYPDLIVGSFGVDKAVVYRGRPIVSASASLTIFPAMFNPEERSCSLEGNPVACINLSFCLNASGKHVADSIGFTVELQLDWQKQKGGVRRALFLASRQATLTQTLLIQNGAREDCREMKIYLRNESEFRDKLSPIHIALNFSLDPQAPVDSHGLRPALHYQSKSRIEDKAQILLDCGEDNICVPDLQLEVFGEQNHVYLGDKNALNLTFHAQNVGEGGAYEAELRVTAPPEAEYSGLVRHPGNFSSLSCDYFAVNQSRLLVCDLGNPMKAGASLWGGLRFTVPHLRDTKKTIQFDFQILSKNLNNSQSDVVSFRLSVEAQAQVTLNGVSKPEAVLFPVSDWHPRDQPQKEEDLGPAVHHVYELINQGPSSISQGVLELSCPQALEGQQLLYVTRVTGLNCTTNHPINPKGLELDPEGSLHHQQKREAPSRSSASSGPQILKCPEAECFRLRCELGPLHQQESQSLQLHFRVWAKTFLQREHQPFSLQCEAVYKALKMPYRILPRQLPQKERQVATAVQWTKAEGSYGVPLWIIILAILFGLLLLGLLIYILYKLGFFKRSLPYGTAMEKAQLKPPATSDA

| Substance | AI (adhesion index) of ligand-coated beads bound to K562 cells [1] | adhesion index (AI, beads bound per 100 K562 cells) (beads bound per 100 cells) [2] |
| --- | --- | --- |
| human serum albumin: coated on beads to determine nonspecific binding | 46 ± 10 | – |
| human fibronectin (ligand) | – | 318 |

— paper PMC2190579 (The Journal of Cell Biology, 2001)
